Measurements from patent publication US6627664B2, “Perylenequinones for use as sonosensitizers” (Altachem Pharma Ltd., priority 2001, dated 2003).

What was measured:
cells = details: without light
Description: As used herein, “photopotentiation factor” refers to the property of the compound(s) to exert light- or sound-mediated toxicity in excess of its (their) inherent unactivated toxicity. […] Where the term “LD50” has been used above, the term “IC50” may be substituted, to address the bioassays that concern metabolic activity rather than the endpoint of lethality, loss of reproductive capability, or clonogenic death. The relative photoactivation efficiency of a compound may also be determined using a clonogenic assay, an assay that is well known to those skilled in the art.
In accordance with the present invention, a desirable PQP derivative is one that is non-toxic (or of low toxicity) at high drug concentrations without activation, i.e., without light (also referred to as “dark”), and/or without sound, and is toxic at low concentrations when light of the appropriate wavelength, or sound of the appropriate frequency, is applied. As is recognized by those skilled in the art, the most desirable compounds are those that provide a wide range of non-toxic doses in an unactivated state, as this characteristic provides an increased safety factor for the patient.

[1] = Light absorption properties (red spectral region, 630 nm); type: physicochemical; details: for A630: absorbance at 630 nm
[2] = Singlet oxygen (1O2) yield; type: physicochemical

Methylamine-HB [HBMA-IV]
LD50 Dark (cells): 8.5 µM
Abs. Peak in red Spectral region [1]: 640 nm
Extinction Coefficient (× 10^−3) (630 nm) [1]: 2.46 × 10^−3
A630 [1]: 0.246
Amax/solvent ([1]; solvent CHCl3): 0.246/CHCl3
^1O2 Yield [2]: 0.80

2-(N,N-diethyl-amino) ethylamine-HB [HBDD-R2]
LD50 Dark (cells): >25 µM

Ethylenediamine-HB [HBED-R2]
LD50 Dark (cells): >25 µM
Abs. Peak in red Spectral region [1]: 614* nm
Extinction Coefficient (× 10^−3) (630 nm) [1]: 12.39 × 10^−3
A630 [1]: 1.239
Amax/solvent ([1]; solvent DMSO): 1.449/DMSO
^1O2 Yield [2]: 0.50

Marks after values point to notes of the source that are not given here.
